# Ab-14 heavy chain CDR variants: yeast mating affinities

Target: peptide PDVDLGDISGINAS, taken from heptad repeat 2 (HR2) of SARS-CoV-2 spike.

Parent scFv Ab-14: VH joined to VL by a 15-residue (Gly4Ser)3 linker. Changes lie in the heavy chain CDRs alone.
VH: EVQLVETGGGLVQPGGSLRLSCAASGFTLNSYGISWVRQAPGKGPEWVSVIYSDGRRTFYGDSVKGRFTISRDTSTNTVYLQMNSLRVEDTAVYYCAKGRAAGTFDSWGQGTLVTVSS
VL: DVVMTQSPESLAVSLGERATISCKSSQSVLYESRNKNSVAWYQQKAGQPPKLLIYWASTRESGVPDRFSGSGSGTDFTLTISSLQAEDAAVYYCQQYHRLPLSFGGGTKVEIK

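The starting antibody came from a phage panning campaign against this peptide. These sequences belong to a second round, designed from the earlier measurements on random variants of the parent. Group labels follow the data file (En: ensemble of fine-tuned language models; HC: hill climbing; Gen: genetic algorithm; Gibbs: Gibbs sampling; a sequence that several methods proposed may carry one label only). The scFvs were displayed on barcoded MATa yeast, the peptide on MATalpha yeast. Binding brings cells together so that they mate, and sequencing counts the barcode pairs among the diploids. Read counts were normalised to the haploid input and turned into Kd by a linear fit to BCL2-family pairs of known affinity, for each replicate. There are six technical replicates.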

Variants are written as CDR1, CDR2 and CDR3 of the heavy chain (limits as in the source). Parent: GFTLNSYGIS, VIYSDGRRTFYGDSVK, GRAAGTFDS.
This list holds designs with more than six substitutions.
Affinities are written as log10 Kd with Kd in nM; a lower number is a better binder.
The mean shown is taken over the replicates in which the pair was detected.
"no signal" marks a missing value. The strain was present, yet no cells mated with the target were sequenced in any replicate, which points to weak or no binding.
Empty control strains, which show no peptide, gave a signal in 1% of pairings with all heavy chain designs; the median was 2.08 and 95% of these signals were weaker than 0.84. No background was subtracted. The control count says in how many pairings with the empty strains this scFv gave a signal.
A sequence measured in both rounds can read differently, since the two assays cover different ranges.
The authors' rule: three or more of the six replicates give a measured affinity, fewer mean a poor binder.
Of ten entries with the parent sequence, four were seen in most replicates (averages 0.34 to 2.37), three in one and three in none, so single entries are noisy.

| CDR-H1 | CDR-H2 | CDR-H3 | group | log10 Kd (nM), mean | detected | signal with controls |
|---|---|---|---|---|---|---|
| GFDLNEYGIS | VIYADGIRTFYADSVK | GNNAGTFDV | En_HC | -0.40 | 6 of 6 | 0 of 18 |
| GFDLNEYGIS | VIYADGMRKAYADSVK | GENAGTFDM | En_Gen | 1.13 | 4 of 6 | 0 of 18 |
| GFDLNEYGIS | VIYADGSRTAYADSVK | GNNAGTFDV | En_Gen | -0.48 | 6 of 6 | 0 of 18 |
| GFDLSEYGIS | VIYADGRRTFYTDSVK | GENAGTFDE | En_HC | 0.70 | 6 of 6 | 0 of 18 |
| GFDLEEYGIS | VIYADGMRTAYADSVK | GNNAGTFDI | En_Gen | -0.17 | 6 of 6 | 1 of 18 |
| GFDLDEYGIS | VIYADGRRTAYADSVK | GEVAGTFDI | En_Gen | 0.08 | 6 of 6 | 0 of 18 |
| GFDLDEYGIS | VIYADGKRTAYADSVK | GNEAGTFDT | En_Gen | -0.62 | 6 of 6 | 0 of 18 |
| GVDLDEYGIS | VIYADGHRRYYAANVK | GVNIDGFDL | En_Gibbs | 1.82 | 1 of 6 | 0 of 18 |
| GFNLNEYGIS | VIYADGKRTFYIDGVK | GTWYVFGMG | En_Gibbs | no signal | 0 of 6 | 0 of 18 |
| GKSLDEYGIS | VIYADGLRTQYSNKVK | GLEGFFFDQ | En_Gibbs | no signal | 0 of 6 | 0 of 18 |
| GFDLNEYGIS | VIYADGRRTAYIDSVK | GETAGTFDQ | En_HC | -0.33 | 6 of 6 | 0 of 18 |
| GFDLNEYGIS | VIYADGMRTAYAESVK | GNVAGTFDL | En_Gen | -0.80 | 6 of 6 | 0 of 18 |
| GFDLESYGIS | VIYADGSRTAYADSVK | GNVAGTFNI | En_HC | -0.04 | 6 of 6 | 0 of 18 |
| GFSLEEYGIS | VIYADGVRRSYSDNVK | GFNGEVSIV | En_Gibbs | no signal | 0 of 6 | 1 of 18 |
| GFNLDEYGIS | VIYADGRRTFYSDSVK | GEAAGTFDV | En_HC | -0.17 | 6 of 6 | 0 of 18 |
| GFDLNEYGIS | VIYADGHRTQYSNNVK | GGQAGIGLS | En_Gibbs | 2.01 | 1 of 6 | 0 of 18 |
| GFDIEDYGIS | VIYADGKRSAYSNSFK | GLMAGNMMV | En_Gibbs | no signal | 0 of 6 | 2 of 18 |
| GENIEEYGIS | VIYADGRRTAYAEPVK | GQSGGTIDT | En_Gibbs | 1.94 | 1 of 6 | 0 of 18 |
| GFELQEYGIS | VIYADGMRTAVSDNVK | GDNRGIFHM | En_Gibbs | no signal | 0 of 6 | 0 of 18 |
| GFDLNEYGIS | VIYADGRRTFYADSVK | GNVAGTFFI | En_HC | 0.29 | 6 of 6 | 0 of 18 |
| GFDLNEYGIS | VIYADGVRTQYIDSVK | GEIAGTFDS | En_HC | -0.31 | 6 of 6 | 0 of 18 |
| GFDLNEYGIS | VIYADGQRTFYSDSVK | GENAGTFDV | En_Gen | -0.03 | 6 of 6 | 0 of 18 |
| GDILEEYGIS | VIYADGMRTYYEPSVK | GNVNGVFFI | En_Gibbs | no signal | 0 of 6 | 0 of 18 |
| GFSLDEYGIS | VIYADGVRAHYSDQVK | GVKVGNVIM | En_Gibbs | no signal | 0 of 6 | 0 of 18 |
| GFDLDEYGIS | VIYADGVRTYYADSVK | GNVAGTFDL | En_Gen | -0.41 | 6 of 6 | 0 of 18 |
| GFDLNEYGIS | VIYADGVRTAYSDNVK | GEVAGTFDL | En_Gen | -0.14 | 6 of 6 | 0 of 18 |
| GFELDEYGIS | VIYADGKRKAYDDSVK | GFRLGVKLI | En_Gibbs | no signal | 0 of 6 | 0 of 18 |
| GFDLEEYGIS | VIYADGERVNYTEAVK | GQFSGVKMD | En_Gibbs | no signal | 0 of 6 | 0 of 18 |
| GFDLNEYGIS | VIYADGRRTQYIDSVK | GNQAGTFDS | En_HC | -0.01 | 6 of 6 | 0 of 18 |
| GYDIEEYGVS | VIYADGKRNAYANSVK | GKWAGAFVD | En_Gibbs | no signal | 0 of 6 | 0 of 18 |
| GFDLNEYGIS | VIYADGVRTAYADAVK | GENAGTFDV | En_Gen | -0.30 | 6 of 6 | 0 of 18 |
| GFDLNEYGIS | VIYADGRRTFYTDSVK | GNNAGTFLV | En_HC | 0.64 | 6 of 6 | 1 of 18 |
| GKDIEEYGIS | VIYADGMRQAYLDKVK | GNNGSSGLF | En_Gibbs | -0.48 | 1 of 6 | 0 of 18 |
| GFDLDEYGIS | VIYADGRRTFYIDSVK | GETAGTFDM | En_HC | -0.20 | 6 of 6 | 1 of 18 |
| GFNLDEYGVS | VIYADGKRCQYANNVK | GENAGFFML | En_Gibbs | no signal | 0 of 6 | 0 of 18 |
| GFDLEEYGIS | VIYADGRRTQYTANVK | GGKSGDFFM | En_Gibbs | no signal | 0 of 6 | 0 of 18 |
| GFDLNEYGIS | VIYADGKRTFYTDSVK | GQLAGTFDS | En_HC | -0.80 | 6 of 6 | 2 of 18 |
| GFDLNEYGIS | VIYADGMRTMYADSVK | GQNAGTFDV | En_Gen | -0.51 | 6 of 6 | 0 of 18 |
| GFDLDEYGIS | VIYADGQRTAYADSVK | GNNAGTFDV | En_Gen | -0.31 | 6 of 6 | 0 of 18 |
| GFNLEEYGIS | VIYADGVRASYAENVK | AGGNVIAIG | En_Gibbs | no signal | 0 of 6 | 0 of 18 |
| GFDLNEYGIS | VIYADGMRTFYADDVK | GNVAGTFDL | En_Gen | -0.67 | 6 of 6 | 0 of 18 |
| GFDLEEYGIS | VIYADGYRTYAIDNVK | GEISGKGGT | En_Gibbs | no signal | 0 of 6 | 0 of 18 |
| GFDLNEYGIS | VIYADGRRTFYADSVK | GNQAGTFNV | En_HC | -0.48 | 6 of 6 | 0 of 18 |
| GFSLNEYGIS | VIYADGTRKSYADNVK | GYQHSVVSL | En_Gibbs | no signal | 0 of 6 | 1 of 18 |
| GFDLNEYGIS | VIYADGMRKYYADSVK | GNVAGTFDL | En_Gen | -0.11 | 6 of 6 | 2 of 18 |
| GFDLNEYGIS | VIYADGLRTAYADSVK | GNQAGTFDI | En_Gen | -0.20 | 6 of 6 | 1 of 18 |
| GFDLDEYGIS | VIYADGVRTAYADSVK | GNNAGTFDQ | En_Gen | -0.10 | 6 of 6 | 0 of 18 |
| GFDLEEYGIS | VIYADGRRTAYADSVK | GNVAGTFDV | En_Gen | 0.03 | 6 of 6 | 0 of 18 |
| GFDLEEYGIS | VIYADGRRTAYADSVK | GEVAGTFDV | En_Gen | -0.17 | 6 of 6 | 0 of 18 |
| GFDLNEYGIS | VIYADGMRTAYADAVK | GNVAGTFDV | En_Gen | -0.55 | 6 of 6 | 1 of 18 |
| GFDLNEYGIS | VIYADGMRTAYANSVK | GETAGTFDL | En_Gen | -0.54 | 6 of 6 | 0 of 18 |
| GQSLEEYGIS | VIYADGFRTQYKNSVK | GKNSFDITV | En_Gibbs | no signal | 0 of 6 | 0 of 18 |
| GFQLDEFGIS | VIYADGKRSSYVDDVK | GEGTGAFSV | En_Gibbs | no signal | 0 of 6 | 0 of 18 |
| GMSLGEYGIS | VIYADGERVGYTNNFK | GVMAGTFDV | En_Gibbs | 1.55 | 1 of 6 | 0 of 18 |
| GFDLNEYGIS | VIYADGMRTAYADSVK | GNVAGTFDA | En_Gen | -0.57 | 6 of 6 | 0 of 18 |
| GFDLDEYGIS | VIYADGMRTAYSDSVK | GGNAGTFDQ | En_Gen | no signal | 0 of 6 | 0 of 18 |
| GFNLNEYGIS | VIYADGRRTFYTDDVK | GEHAGTFDL | En_HC | -1.46 | 4 of 6 | 0 of 18 |
| GFDLDEYGIS | VIYADGRRTFYADSVK | GENAGTFTS | En_HC | 0.35 | 6 of 6 | 0 of 18 |
| GFNLDEYGIS | VIYADGQRTAYAKHVK | GTGGMIRGV | En_Gibbs | 0.68 | 1 of 6 | 0 of 18 |
| GFDLNEYGIS | VIYADGMRTAYADDVK | GENAGTFDL | En_Gen | -0.05 | 6 of 6 | 0 of 18 |
| GFDLDEYGIS | VIYADGRRTFYSDSVK | GGNAGTFDV | En_HC | -0.77 | 6 of 6 | 0 of 18 |
| GFDLNEYGIS | VIYADGQRTAYSDSVK | GGNAGTFDV | En_Gen | -0.63 | 6 of 6 | 1 of 18 |
| GFDLEDYGIS | VIYADGMRTAYADSVK | GENAGTFDV | En_Gen | -0.33 | 6 of 6 | 0 of 18 |
| GFDLNEYGIS | VIYADGVRTFYADSVK | GEVAGTFDT | En_Gen | -0.56 | 6 of 6 | 0 of 18 |
| GFDLDEYGIS | VIYADGMRTSYADSVK | GQNAGTFDV | En_Gen | -0.72 | 5 of 6 | 0 of 18 |
| GFDLNEYGIS | VIYADGMRTFYTDNVK | GQNAGTFDV | En_HC | -0.59 | 6 of 6 | 0 of 18 |
| GFNLSEYGIS | VIYADGKKTQYSNAVK | GANGGYFNV | En_Gibbs | 1.16 | 1 of 6 | 0 of 18 |
| GFDINEYGIS | VIYADGRRKAYADSVK | GIDVYGKTV | En_Gibbs | no signal | 0 of 6 | 0 of 18 |
| GFDLNEYGIS | VIYADGRRTFYADNVK | GEVAGTFTV | En_HC | -0.74 | 6 of 6 | 0 of 18 |
| EMDLQEFGIS | VIYADGKREAYKDDFK | GQVAGTFDL | En_Gibbs | 1.06 | 6 of 6 | 0 of 18 |
| GFDLNEYGIS | VIYADGRRTAYLDSVK | GEVAGTFDS | En_HC | -0.41 | 6 of 6 | 0 of 18 |
| GFDLQEIGIS | VIYADGTRQAYSEKVK | GQLAGFLVD | En_Gibbs | no signal | 0 of 6 | 0 of 18 |
| GFDLNEYGIS | VIYADGRRTAYIDSVK | GNVAGTFDS | En_HC | -0.47 | 6 of 6 | 0 of 18 |
| GFDLNEYGIS | VIYADGRRTFYSDSVK | GSEAGTFNM | En_HC | 0.17 | 6 of 6 | 0 of 18 |
| GFDLNEYGIS | VIYADGMRTAYTDSVK | GNNAGTFDS | En_HC | -0.76 | 6 of 6 | 0 of 18 |
| GFDLNEYGIS | VIYADGKRTAYSDAVK | GNVAGTFDV | En_Gen | -0.49 | 6 of 6 | 0 of 18 |
| EFDLNNYGIS | VIYADGLRTAYETSVK | GDVAGTFVS | En_Gibbs | 0.97 | 6 of 6 | 1 of 18 |

The first 6 entries again:

| CDR-H1 | CDR-H2 | CDR-H3 | group | log10 Kd (nM), mean | detected | signal with controls |
|---|---|---|---|---|---|---|
| GFDLNEYGIS | VIYADGIRTFYADSVK | GNNAGTFDV | En_HC | -0.40 | 6 of 6 | 0 of 18 |
| GFDLNEYGIS | VIYADGMRKAYADSVK | GENAGTFDM | En_Gen | 1.13 | 4 of 6 | 0 of 18 |
| GFDLNEYGIS | VIYADGSRTAYADSVK | GNNAGTFDV | En_Gen | -0.48 | 6 of 6 | 0 of 18 |
| GFDLSEYGIS | VIYADGRRTFYTDSVK | GENAGTFDE | En_HC | 0.70 | 6 of 6 | 0 of 18 |
| GFDLEEYGIS | VIYADGMRTAYADSVK | GNNAGTFDI | En_Gen | -0.17 | 6 of 6 | 1 of 18 |
| GFDLDEYGIS | VIYADGRRTAYADSVK | GEVAGTFDI | En_Gen | 0.08 | 6 of 6 | 0 of 18 |

Reference: Li et al. 2023, doi:10.1038/s41467-023-39022-2. File: FLAb, binding data.